Test results published in patent publication US20260384421A1, “NOVEL COMPOUNDS THAT CAN BE USED AS THERAPEUTIC AGENTS” (published 2026).

How the values were obtained:
LL/2 cells = assay: alamarBlue proliferation assay with LL/2 cells; conditions: read-out: Activity on LL/2: IC50; LL/2 murine Lewis lung carcinoma cells, DMEM medium, 10% FBS
BHY cells = assay: alamarBlue proliferation assay with BHY cells; conditions: read-out: Activity on BHY: IC50, DMEM medium, 10% FBS
HCT-116 cells = assay: alamarBlue proliferation assay with HCT-116 cells; conditions: read-out: Activity on HCT-116: IC50, McCoy's 5A medium, 10% FBS
MDA-MB-231 cells = assay: alamarBlue proliferation assay with MDA-MB-231 cells (glucose-free Leibovitz's L-15 medium)
HEP-G2 cells = assay: alamarBlue proliferation assay with HEP-G2 cells; conditions: read-out: Activity on HEP-G2: IC50, RPMI 1640 medium, 10% FBS
HeLa cells = assay: alamarBlue proliferation assay with HeLa cells; conditions: read-out: Activity on HeLa (IC50), day 5
Source text: These hyperproliferative processes can be benign or malignant and include hyperplasia, neoplasia, cancer and pre-cancerous lesions, and metastases. The antiproliferative activities of compounds falling under general formula (I) were investigated on human primary epidermal keratinocytes (HPEK) and human, murine and canine cell lines derived from hyperproliferative tissue or different cancer types, including MDA-MB-231, ZR-75-30, HCC-1395, HCC-1937, and T-47D all originating from cancer of the breast, JURKAT, RPMI-8402, LOUCY, TANQUE, REC-1, HL-60, NB-4 all originating from different types of blood cancer including lymphoma and leukemia of T-cells, B-cells and myeloid cells, TT originating from cancer of the neuroendocrine system, HeLa originating from cancer of the cervix, 23132/87, SW-948, and HCT-116 all originating from cancer of the gastrointestinal tract including stomach and colon, BHY originating from cancer of the mucosal epithelium, A-431 originating from cancer of the skin, HEP-G2 originating from cancer of the liver, NCI-H460 and A-549 both originating from cancer of the lung, PANC-1 originating from cancer of the pancreas, U-87 MG originating from cancer of the brain, A-375 and RVH-421 both originating from cancer of melanocytes, SW-1353 originating from cancer of bone-derived chondrocytes, C2C12 a mouse cell line originating from hyperproliferative muscle progenitor cells, LL/2 a mouse cell line originating from cancer of the lung, CF21.T a dog cell line originating from cancer of the connective tissue. To this end, according cells were seeded into 96-well plates (CORNING #3598) suitable for fluorescence assays at following initial cell numbers: 1000 cells per well for HPEK; 3000 cells per well for MDA-MB-231, 8000 cells per well for ZR-75-30, 1500 cells per well for HCC-1395, 1500 cells per well for HCC-1937, 3000 cells per well for T-47D, 1500 cells per well for JURKAT, 5000 cells per well for RPMI-8402, 9000 cells per well for LOUCY, 1500 cells per well for TANQUE, 9000 cells per well for REC-1, 1000 cells per well for HL-60, 1000 cells per well for NB-4, 9000 cells per well for TT, 2000 cells per well for HeLa, 2000 cells per well for 23132/87, 9000 cells per well for SW-948, 700 cells per well for HCT-116, 1500 cells per well for BHY, 700 cells per well for A-431, 1500 cells per well for HEP-G2, 500 cells per well for NCI-H460, 1000 cells per well for A-549, 1500 cells per well for PANC-1, 2500 cells per well for U-87 MG, 700 cells per well for A-375, 1500 cells per well for RVH-421, 2000 cells per well for SW-1353, 500 cells per well for C2C12, 500 cells per well for LL/2, and 3000 cells per well for CF21.T. In a volume of 90 μL per well of culture medium the cells were treated with compounds at indicated final concentrations by adding 10 μL per well of 10× compound working solutions from 1:100 pre-diluted 1000× compound DMSO stock-solutions in H2O (Water For Injection, WFI, Fisher Scientific, Gibco™ #A12873) or with the empty carrier DMSO (AppliChem, #A3672) at 0.1% v/v as control yielding a final volume of 100 μL per well. At day 5 after starting the treatments the cells were subjected to the alamarBlue® Proliferation Assay (Bio-Rad Serotec GmbH, BUF012B) according to the protocol of the manufacturer. The readout was taken with a multi-well plate-reader (Tecan Spark®) in the fluorescence mode with applying a filter for excitation at 560 nm (band width 10 nm) and for emission at 590 nm (band width 10 nm). […]

TANQUE cells = assay: alamarBlue proliferation assay with TANQUE cells; conditions: read-out: Activity on TANOUE: IC50, RPMI 1640 medium, 10% FBS
23132/87 cells = assay: alamarBlue proliferation assay with 23132/87 cells; conditions: read-out: Activity on 23132/87: IC50, RPMI 1640 medium, 10% FBS
Source text: (§1) These hyperproliferative processes can be benign or malignant and include hyperplasia, neoplasia, cancer and pre-cancerous lesions, and metastases. The antiproliferative activities of compounds falling under general formula (I) were investigated on human primary epidermal keratinocytes (HPEK) and human, murine and canine cell lines derived from hyperproliferative tissue or different cancer types, including MDA-MB-231, ZR-75-30, HCC-1395, HCC-1937, and T-47D all originating from cancer of the breast, JURKAT, RPMI-8402, LOUCY, TANQUE, REC-1, HL-60, NB-4 all originating from different types of blood cancer including lymphoma and leukemia of T-cells, B-cells and myeloid cells, TT originating from cancer of the neuroendocrine system, HeLa originating from cancer of the cervix, 23132/87, SW-948, and HCT-116 all originating from cancer of the gastrointestinal tract including stomach and colon, BHY originating from cancer of the mucosal epithelium, A-431 originating from cancer of the skin, HEP-G2 originating from cancer of the liver, NCI-H460 and A-549 both originating from cancer of the lung, PANC-1 originating from cancer of the pancreas, U-87 MG originating from cancer of the brain, A-375 and RVH-421 both originating from cancer of melanocytes, SW-1353 originating from cancer of bone-derived chondrocytes, C2C12 a mouse cell line originating from hyperproliferative muscle progenitor cells, LL/2 a mouse cell line originating from cancer of the lung, CF21.T a dog cell line originating from cancer of the connective tissue. To this end, according cells were seeded into 96-well plates (CORNING #3598) suitable for fluorescence assays at following initial cell numbers: 1000 cells per well for HPEK; 3000 cells per well for MDA-MB-231, 8000 cells per well for ZR-75-30, 1500 cells per well for HCC-1395, 1500 cells per well for HCC-1937, 3000 cells per well for T-47D, 1500 cells per well for JURKAT, 5000 cells per well for RPMI-8402, 9000 cells per well for LOUCY, 1500 cells per well for TANQUE, 9000 cells per well for REC-1, 1000 cells per well for HL-60, 1000 cells per well for NB-4, 9000 cells per well for TT, 2000 cells per well for HeLa, 2000 cells per well for 23132/87, 9000 cells per well for SW-948, 700 cells per well for HCT-116, 1500 cells per well for BHY, 700 cells per well for A-431, 1500 cells per well for HEP-G2, 500 cells per well for NCI-H460, 1000 cells per well for A-549, 1500 cells per well for PANC-1, 2500 cells per well for U-87 MG, 700 cells per well for A-375, 1500 cells per well for RVH-421, 2000 cells per well for SW-1353, 500 cells per well for C2C12, 500 cells per well for LL/2, and 3000 cells per well for CF21.T. In a volume of 90 μL per well of culture medium the cells were treated with compounds at indicated final concentrations by adding 10 μL per well of 10× compound working solutions from 1:100 pre-diluted 1000× compound DMSO stock-solutions in H2O (Water For Injection, WFI, Fisher Scientific, Gibco™ #A12873) or with the empty carrier DMSO (AppliChem, #A3672) at 0.1% v/v as control yielding a final volume of 100 μL per well. At day 5 after starting the treatments the cells were subjected to the alamarBlue® Proliferation Assay (Bio-Rad Serotec GmbH, BUF012B) according to the protocol of the manufacturer. The readout was taken with a multi-well plate-reader (Tecan Spark®) in the fluorescence mode with applying a filter for excitation at 560 nm (band width 10 nm) and for emission at 590 nm (band width 10 nm). Treatment for maximum proliferation inhibition with the commercial cytotoxic compound (S)-(+)-camptothecin (Fluorochem #M01564) at a concentration of 10 μM was included on each plate for assay quality control. Some of the test compounds of the present invention may have been obtained and applied as their salt forms.
(§2) The assays were performed in duplicate or more replicates of independent single experiments each containing a three- to six-fold replicate for every condition. […]

T-47D cells = assay: alamarBlue proliferation assay with T-47D cells; conditions: read-out: Activity on T-47D (IC50), day 5
Source text: as §1, §2

CF21.T cells = assay: alamarBlue proliferation assay with CF21.T cells; conditions: read-out: Activity on CF21.T: IC50; CF21.T canine cells, DMEM medium, 10% FBS
NB-4 cells = assay: alamarBlue proliferation assay with NB-4 cells; conditions: read-out: Activity on NB-4: IC50, RPMI 1640 medium, 10% FBS
A-549 cells = assay: alamarBlue proliferation assay with A-549 cells; conditions: read-out: Activity on A-549: IC50, DMEM medium, 10% FBS
HPEKp cells = assay: proliferation assay with human epidermal keratinocyte progenitors (HPEKp), selectivity versus MDA-MB-231; conditions: read-out: Activity (HPEK): antiproliferative activity on HPEK cells, IC50 category; HPEK cells cultivated in CnT-Prime medium
ZR-75-30 cells = assay: alamarBlue proliferation assay with ZR-75-30 cells; conditions: read-out: Activity on ZR-75-30 (IC50), day 5
Description: These hyperproliferative processes can be benign or malignant and include hyperplasia, neoplasia, cancer and pre-cancerous lesions, and metastases. […] To this end, according cells were seeded into 96-well plates (CORNING #3598) suitable for fluorescence assays at following initial cell numbers: 1000 cells per well for HPEK; 3000 cells per well for MDA-MB-231, 8000 cells per well for ZR-75-30, 1500 cells per well for HCC-1395, 1500 cells per well for HCC-1937, 3000 cells per well for T-47D, 1500 cells per well for JURKAT, 5000 cells per well for RPMI-8402, 9000 cells per well for LOUCY, 1500 cells per well for TANQUE, 9000 cells per well for REC-1, 1000 cells per well for HL-60, 1000 cells per well for NB-4, 9000 cells per well for TT, 2000 cells per well for HeLa, 2000 cells per well for 23132/87, 9000 cells per well for SW-948, 700 cells per well for HCT-116, 1500 cells per well for BHY, 700 cells per well for A-431, 1500 cells per well for HEP-G2, 500 cells per well for NCI-H460, 1000 cells per well for A-549, 1500 cells per well for PANC-1, 2500 cells per well for U-87 MG, 700 cells per well for A-375, 1500 cells per well for RVH-421, 2000 cells per well for SW-1353, 500 cells per well for C2C12, 500 cells per well for LL/2, and 3000 cells per well for CF21.T. In a volume of 90 μL per well of culture medium the cells were treated with compounds at indicated final concentrations by adding 10 μL per well of 10× compound working solutions from 1:100 pre-diluted 1000× compound DMSO stock-solutions in H2O (Water For Injection, WFI, Fisher Scientific, Gibco™ #A12873) or with the empty carrier DMSO (AppliChem, #A3672) at 0.1% v/v as control yielding a final volume of 100 μL per well. […] The readout was taken with a multi-well plate-reader (Tecan Spark®) in the fluorescence mode with applying a filter for excitation at 560 nm (band width 10 nm) and for emission at 590 nm (band width 10 nm). […]

[1] = read-out: Activity on MDA-MB-231 (IC50), glucose-free Leibovitz's L-15, 10% FBS, day 5, alamarBlue

Row | SMILES | IC50 (HCT-116 cells) [µM] | IC50 (MDA-MB-231 cells; [1]) [µM] | IC50 (HEP-G2 cells) [µM] | IC50 (HeLa cells) [µM] | IC50 (T-47D cells) [µM] | IC50 (A-549 cells) [µM] | IC50 (MDA-MB-231 cells; read-out: Activity (MDA): antiproliferative activity on MDA-MB-231 cells, IC50 category, MDA-MB-231 cells cultivated in glucose-free Leibovitz's L-15 medium) [µM] | IC50 (HPEKp cells) [µM] | IC50 (LL/2 cells) [µM] | IC50 (BHY cells) [µM] | IC50 (TANQUE cells) [µM] | IC50 (23132/87 cells) [µM] | IC50 (CF21.T cells) [µM] | IC50 (NB-4 cells) [µM] | IC50 (ZR-75-30 cells) [µM]
1 | CCCCN1CCN(C(=O)c2ccc(Oc3ccc(C4CCC5(CC4)OCCO5)cc3CO)cc2)CC1 | – | ≤ 1 | ≤ 5 | – | – | – | < 1 | > 10 | – | – | – | – | – | – | ≤ 5
2 | COC1CCC(c2ccc(Oc3ccc(C(=O)N4CCN(Cc5ccc(Cl)cn5)CC4)cc3)c(C=O)c2)CC1 (centres unmarked) | ≤ 0.2 | ≤ 0.2 | ≤ 0.2 | ≤ 5 | ≤ 1 | ≤ 0.2 | – | – | ≤ 1 | ≤ 0.2 | ≤ 0.2 | ≤ 5 | ≤ 1 | ≤ 0.2 | –

More lines, main results first:

Row | IC50 (HCT-116 cells) [µM] | IC50 (MDA-MB-231 cells; [1]) [µM] | IC50 (HEP-G2 cells) [µM] | IC50 (HeLa cells) [µM] | IC50 (T-47D cells) [µM] | IC50 (A-549 cells) [µM] | IC50 (MDA-MB-231 cells; read-out: Activity (MDA): antiproliferative activity on MDA-MB-231 cells, IC50 category, MDA-MB-231 cells cultivated in glucose-free Leibovitz's L-15 medium) [µM] | IC50 (HPEKp cells) [µM] | SMILES | IC50 (LL/2 cells) [µM] | IC50 (BHY cells) [µM] | IC50 (TANQUE cells) [µM] | IC50 (23132/87 cells) [µM] | IC50 (CF21.T cells) [µM] | IC50 (NB-4 cells) [µM] | IC50 (ZR-75-30 cells) [µM]
3 | ≤ 1 | ≤ 0.2 | ≤ 0.2 | ≤ 5 | ≤ 1 | ≤ 0.2 | – | – | COC1CCC(c2ccc(Oc3ccc(C(=O)N4CCN(Cc5ccc(Cl)nc5)CC4)cc3)c(C=O)c2)CC1 (centres unmarked) | ≤ 1 | ≤ 0.2 | ≤ 0.2 | ≤ 1 | ≤ 1 | ≤ 0.2 | –
4 | ≤ 0.2 | ≤ 0.2 | ≤ 0.2 | ≤ 5 | ≤ 5 | ≤ 0.2 | – | – | COC1CCC(c2ccc(Oc3ccc(C(=O)N4CCN(Cc5ccc(OC(F)(F)F)cc5)CC4)cc3)c(C=O)c2)CC1 (centres unmarked) | ≤ 0.2 | ≤ 0.2 | ≤ 0.2 | ≤ 5 | ≤ 0.2 | ≤ 0.2 | –
5 | ≤ 0.2 | ≤ 0.2 | ≤ 0.2 | ≤ 5 | ≤ 5 | ≤ 0.2 | – | – | COC1CCC(c2ccc(Oc3ccc(C(=O)N4CCN(Cc5ccc(S(F)(F)(F)(F)F)cc5)CC4)cc3)c(C=O)c2)CC1 (centres unmarked) | ≤ 0.2 | ≤ 0.2 | ≤ 0.2 | ≤ 5 | ≤ 0.2 | ≤ 0.2 | –

Read-outs that look alike come from different tables or passages of the source.
